These results are taken from PMC12724200 (mSphere, 2025).

The test has as its system M. avium 104. The class given is cell-based, Mycobacterium avium.

Turning to Dimethyldithiocarbamate [DMDC], the MIC stood at 3.91 µg/mL.

Broadly, the MIC is the smallest concentration in the dilution series that meets the test's criterion for growth inhibition. High values mean weaker potency, low ones greater potency.
